For 1 compound, Ki results are on record in ChEMBL document CHEMBL5034034, “A Series of Novel, Highly Potent, and Orally Bioavailable Next-Generation Tricyclic Peptide PCSK9 Inhibitors” (J Med Chem, 2021).

The chains behind the UniProt entries cited, without tags or fusion partners. Residues count along the entry.
UniProt Q8NBP7, 31-152 limits assumed: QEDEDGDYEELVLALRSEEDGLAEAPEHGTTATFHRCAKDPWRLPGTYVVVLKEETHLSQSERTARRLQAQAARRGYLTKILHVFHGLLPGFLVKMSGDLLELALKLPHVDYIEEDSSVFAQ
UniProt Q8NBP7, 153-692 limits assumed: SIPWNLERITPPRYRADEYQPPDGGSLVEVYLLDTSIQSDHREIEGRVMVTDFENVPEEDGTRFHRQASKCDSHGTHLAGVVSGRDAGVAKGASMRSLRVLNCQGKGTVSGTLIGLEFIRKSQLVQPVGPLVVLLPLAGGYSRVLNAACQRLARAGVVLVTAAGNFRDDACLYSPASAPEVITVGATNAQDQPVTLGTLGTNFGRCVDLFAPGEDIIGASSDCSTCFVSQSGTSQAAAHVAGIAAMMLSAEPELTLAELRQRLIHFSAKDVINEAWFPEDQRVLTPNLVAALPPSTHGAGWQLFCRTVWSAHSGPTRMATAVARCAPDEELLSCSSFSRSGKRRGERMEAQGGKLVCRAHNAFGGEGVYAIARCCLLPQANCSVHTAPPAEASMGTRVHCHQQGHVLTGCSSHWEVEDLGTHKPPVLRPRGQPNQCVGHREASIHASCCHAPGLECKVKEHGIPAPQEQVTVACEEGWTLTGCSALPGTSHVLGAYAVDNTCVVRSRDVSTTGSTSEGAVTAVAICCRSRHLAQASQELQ

This assay has as its target Proprotein convertase subtilisin/kexin type 9 (Homo sapiens, UniProt Q8NBP7). Description: Inhibition of human PCSK9 using Alexa Fluor […] as substrate incubated for 2 hrs by FRET assay.

`COc1ccc(C[C@@H]2NC(=O)[C@H]([C@@H](C)OC)NC(=O)[C@@H]3CC/C=C/COc4cccc(c4)C[C@H](NC(=O)[C@@H](C)NC(=O)[C@H](C)NC(=O)CCSCc4cccc(c4)CSCCNC(=O)[C@]4(C)CCCN4C2=O)C(=O)N[C@@H](Cc2c[nH]c4ccc(F)cc24)C(=O)N3C)cc1`: the inhibition constant Ki (as a rule, the equilibrium dissociation constant of an inhibitor or competing ligand from its target) is 40.7 nM.
